{"sequences": {"note": "Sequences of proteins named here, by UniProt entry; tags and fusion partners are left off.", "UniProt O60760, whole entry": "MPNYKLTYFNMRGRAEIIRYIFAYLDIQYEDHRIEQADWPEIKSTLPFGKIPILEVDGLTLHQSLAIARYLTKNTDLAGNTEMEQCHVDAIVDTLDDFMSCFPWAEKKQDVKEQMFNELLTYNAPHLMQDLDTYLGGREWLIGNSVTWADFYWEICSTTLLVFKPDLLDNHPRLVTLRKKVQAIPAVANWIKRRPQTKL"}, "source": "patent US20110306597A1", "about": "“Nicotinamide Derivatives” (priority 2008, published 2011)", "target": "human recombinant H-PGDS (Homo sapiens, UniProt O60760)", "assay": "Fluorescence Intensity h-PGDS TBA Enzyme Assay", "conditions": "1:175,000 human recombinant H-PGDS, highest inhibitor concentration typically 1 μM", "note": "pIC50: −log10 of the molar value.", "data": [{"compound": "COC(=O)C(Cc1ccc(Cl)cc1)NC(=O)c1ccc(-c2cccc(C)c2)nc1", "note": "(stereo not shown)", "values": [{"measurement": "pIC50", "value": 7.31}]}]}
